Experimental data: PMC11850616, “Nanomolar inhibitor of the galectin-8 N-terminal domain binds via a non-canonical cation-π interaction” (Communications Chemistry, 2025)
Values joined by “and” are separate entries in the source; they are usually repeats but may differ in a detail not shown here. Equal entries are not always repeated.

Chains of the proteins cited; added tags and fusions are not shown. Residues count along the entry.
UniProt P09382, whole entry: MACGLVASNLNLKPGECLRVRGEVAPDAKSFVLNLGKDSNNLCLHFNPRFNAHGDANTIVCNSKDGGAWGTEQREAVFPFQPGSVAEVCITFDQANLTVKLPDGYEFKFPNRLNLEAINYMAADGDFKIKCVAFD
UniProt O00214, 4-158 limits assumed: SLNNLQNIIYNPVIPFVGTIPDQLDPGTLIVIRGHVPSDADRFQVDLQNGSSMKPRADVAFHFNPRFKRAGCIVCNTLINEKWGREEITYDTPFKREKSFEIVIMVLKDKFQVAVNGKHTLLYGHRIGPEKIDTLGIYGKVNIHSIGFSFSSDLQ
UniProt O00214, 19-152 limits assumed: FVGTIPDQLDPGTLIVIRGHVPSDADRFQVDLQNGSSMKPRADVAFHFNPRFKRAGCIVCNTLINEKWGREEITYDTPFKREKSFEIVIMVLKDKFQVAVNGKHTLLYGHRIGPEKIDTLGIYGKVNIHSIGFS
UniProt O00214, 187-317 limits assumed: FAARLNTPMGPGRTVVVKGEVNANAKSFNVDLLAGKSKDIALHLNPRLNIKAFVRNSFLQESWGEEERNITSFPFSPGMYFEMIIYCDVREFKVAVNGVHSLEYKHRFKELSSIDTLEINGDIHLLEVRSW
UniProt P17931, whole entry: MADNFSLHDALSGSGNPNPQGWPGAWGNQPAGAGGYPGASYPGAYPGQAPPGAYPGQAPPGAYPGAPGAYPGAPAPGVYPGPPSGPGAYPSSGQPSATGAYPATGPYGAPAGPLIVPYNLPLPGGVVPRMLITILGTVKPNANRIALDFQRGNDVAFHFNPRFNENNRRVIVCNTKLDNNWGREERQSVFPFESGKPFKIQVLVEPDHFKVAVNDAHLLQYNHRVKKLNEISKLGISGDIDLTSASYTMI

Key:
Gal-1 = Gal-1 (Homo sapiens, UniProt P09382); assay: competitive fluorescence polarisation assay, Gal-1
Gal-8N = Gal-8N (Homo sapiens, UniProt O00214); assay: ligand efficiency (LE) and ligand-lipophilicity efficiency (LLE) calculations
[1] = molecular target: Gal-8N (galectin-8 N-terminal domain) (Homo sapiens, UniProt O00214); assay: competitive fluorescence polarisation assay, Gal-8N; settings: read-out: Kd Gal-8N; competitive FP, mean ± SEM of n = 4 to 8, 20 °C
Gal-3 = Gal-3 (Homo sapiens, UniProt P17931); assay: competitive fluorescence polarisation assay, Gal-3
Gal-8C = Gal-8C (Homo sapiens, UniProt O00214); assay: competitive fluorescence polarisation assay, Gal-8C

Structure (SMILES): Cn1c(CO[C@H]2[C@@H](O)[C@@H](CO)O[C@H](Sc3ccc(Cl)c(Cl)c3)[C@@H]2OCC2CC2)nc2ccc(C(=O)O)cc21
- Gal-1 selectivity ratio Kd (Gal-1)/Kd (Gal-8N) (Gal-1; ratio of FP Kd values): 12
- Kd (Gal-1; read-out: Kd Gal-1, competitive FP, mean ± SEM of n = 4 to 8, 20 °C): 12 µM
- LLE (Gal-8N; from Gal-8N Kd and clogP): 1.35
- LE (Gal-8N; from Gal-8N Kd and number of non-hydrogen atoms): 0.216 (kcal/mol)/heavy atom
- Kd [1]: 1.02 µM and 1 µM
- Gal-3 selectivity ratio Kd (Gal-3)/Kd (Gal-8N) (Gal-3; ratio of FP Kd values): 5.7
- Kd (Gal-3; read-out: Kd Gal-3, competitive FP, mean ± SEM of n = 4 to 8, 20 °C): 5.7 µM
- Gal-8C selectivity ratio Kd (Gal-8C)/Kd (Gal-8N) (Gal-8C; ratio of FP Kd values): 374
- Kd (Gal-8C; read-out: Kd Gal-8C, competitive FP, mean ± SEM of n = 4 to 8): 374 µM
